In US20230381223A1, “ORAL PYROPHOSPHATE FOR USE IN REDUCING CALCIFICATION” (PYROGENYX INC., priority 2020, published 2023):

Conditions: mice, gastric gavage, dose equivalent to 39 mg/kg PPi, n≥3 per timepoint

lysine pyrophosphate 1:1 salt [monolysine-H2P2O7]
peak plasma PPi concentration (maximum of the absorption curve): 13.5 ± 1.3 µM
